Laboratory results as given in patent publication US20230172929A1, “NOVEL PERIPHERAL CANNABINOID-1 RECEPTOR ANTAGONISTS” (Yissum Research Development Company of the Hebrew …, priority 2019, published 2023).

Amino acid sequences for entries named in this document (tags omitted).
UniProt P47746, whole entry: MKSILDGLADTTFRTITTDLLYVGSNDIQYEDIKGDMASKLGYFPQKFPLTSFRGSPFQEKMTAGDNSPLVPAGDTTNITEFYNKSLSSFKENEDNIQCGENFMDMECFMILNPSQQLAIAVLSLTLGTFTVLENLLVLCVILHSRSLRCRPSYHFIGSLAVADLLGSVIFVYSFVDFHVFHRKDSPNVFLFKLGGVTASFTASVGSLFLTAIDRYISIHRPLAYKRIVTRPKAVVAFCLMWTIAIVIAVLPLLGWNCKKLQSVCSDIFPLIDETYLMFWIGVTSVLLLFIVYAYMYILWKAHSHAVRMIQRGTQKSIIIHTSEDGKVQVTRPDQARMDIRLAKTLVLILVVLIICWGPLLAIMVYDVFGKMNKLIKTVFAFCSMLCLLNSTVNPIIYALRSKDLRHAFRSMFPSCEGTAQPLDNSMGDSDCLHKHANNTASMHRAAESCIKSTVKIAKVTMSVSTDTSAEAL

Molecular target: CB1R (Mus musculus, UniProt P47746)
Experiment: Radioligand binding assay, competition displacement of [3H]CP-55,940, CB1R

CC1=C(C(=O)Nc2ccccc2C(F)(F)F)[C@@H](c2ccc(OCc3ccccc3)cc2)NC(=S)N1
Ki (read-out: Ki (μM) R, separated isomer R): 0.29 µM

Cc1cccc(NS(=O)(=O)c2cc(C(=O)NCCc3c[nH]c4ccccc34)c(Cl)cc2Cl)c1
Ki (CB1R competitive binding, mouse brain membranes, [3H]CP-55,940): 1 µM

CC(=O)NC(CC(=O)NCC(c1ccccc1Cl)c1c[nH]c2ccccc12)c1ccc(C)cc1 (single isomer, unassigned)
Ki (read-out: Ki (μM) RR, separated isomer RR): 1.1 µM | Ki (read-out: Ki (μM) RS, separated isomer RS): 5.6 µM | Ki (read-out: Ki (μM) SR, separated isomer SR): 5.5 µM | Ki (read-out: Ki (μM) SS, separated isomer SS): 1.8 µM

CC1=C(C(=O)Nc2ccccc2C(F)(F)F)C(c2ccc(OCc3ccccc3)cc2)NC(=S)N1 (single isomer, unassigned)
Ki (read-out: Ki (μM) S, separated isomer S): 0.977 µM

Read-outs that look alike come from different tables or passages of the source.
